# From patent US10947274B1 (priority 2018, dated 2021)
# Amino acid sequences for entries named in this document (tags omitted). Residues count along the entry.
# UniProt P43144, 26-479 limits assumed: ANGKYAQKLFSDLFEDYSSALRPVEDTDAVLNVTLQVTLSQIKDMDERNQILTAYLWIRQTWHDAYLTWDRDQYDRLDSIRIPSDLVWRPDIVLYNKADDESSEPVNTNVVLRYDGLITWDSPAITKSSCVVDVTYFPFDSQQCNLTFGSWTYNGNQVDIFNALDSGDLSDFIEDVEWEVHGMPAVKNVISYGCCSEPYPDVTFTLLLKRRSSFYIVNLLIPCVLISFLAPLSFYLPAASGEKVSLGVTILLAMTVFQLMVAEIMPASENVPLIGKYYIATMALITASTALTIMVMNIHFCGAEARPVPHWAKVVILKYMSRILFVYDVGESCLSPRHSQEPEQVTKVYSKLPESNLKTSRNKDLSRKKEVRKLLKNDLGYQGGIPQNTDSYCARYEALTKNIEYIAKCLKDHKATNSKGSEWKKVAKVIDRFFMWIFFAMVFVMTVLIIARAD
# UniProt Q9JLB5, 25-447 limits assumed: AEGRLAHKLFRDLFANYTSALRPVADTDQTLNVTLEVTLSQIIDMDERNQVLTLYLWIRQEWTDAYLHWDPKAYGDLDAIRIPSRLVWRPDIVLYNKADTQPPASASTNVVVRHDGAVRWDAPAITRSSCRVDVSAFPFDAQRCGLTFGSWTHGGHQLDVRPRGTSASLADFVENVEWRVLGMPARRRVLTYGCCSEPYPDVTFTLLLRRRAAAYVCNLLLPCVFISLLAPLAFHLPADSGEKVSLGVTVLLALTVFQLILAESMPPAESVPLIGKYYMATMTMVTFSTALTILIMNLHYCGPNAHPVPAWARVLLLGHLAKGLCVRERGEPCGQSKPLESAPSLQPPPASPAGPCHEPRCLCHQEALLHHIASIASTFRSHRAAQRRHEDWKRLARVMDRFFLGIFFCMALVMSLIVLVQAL
# Target: rat α9α10 nAChR (Rattus norvegicus, UniProt P43144+Q9JLB5)
# Assay: cell-based
smiles,measurement,value
N=C(N)NCCC[C@H](NC(=O)[C@@H]1CSSC[C@@H]2NC(=O)[C@@H](NC(=O)CN)C[Se][Se]C[C@H](NC(=O)[C@H](CCCNC(=N)N)NC(=O)[C@@H]3CCCN3C(=O)[C@H](CC(=O)O)NC(=O)[C@H](CO)NC2=O)C(=O)N[C@@H](CCCNC(=N)N)C(=O)N[C@@H](Cc2ccc(O)cc2)C(=O)N[C@@H](CCCNC(=N)N)C(=O)N1)C(=O)O [[C2Sec;C8Sec] RgIA],% block,<10 nM (96.9 ± 1.4% block at 10 nM)
same,IC50,< 10 nM
